The nature of this series: Conductivity (EPA method 120.1). Format: physicochemical. The settings on record: samples diluted with de-ionized water; Example materials 1% by volume in water.

`O=S(=O)(O)O` [Dilute sulfuric acid, sulfuric acid] returned a Conductivity of 556 mS/cm.

The record behind these values is patent US20250073259A1, “AQUEOUS ANTI MICROBIAL COMPOSITION USEFUL AS A THERAPEUTIC MATERIAL” (Tygrs, LLC, priority 2020, published 2025).
